Data: ChEMBL document CHEMBL1139149, “Discovery of tertiary aminoacids as dual PPARalpha/gamma agonists-I” (Bioorg Med Chem Lett, 2007)

Assays:
[1] = target: T1, Peroxisome proliferator-activated receptor alpha (Homo sapiens, UniProt Q07869); assay: Displacement of fluorescein labeled ligand from PPARalpha receptor by fluorescence polarization assay
T1 sequence (Q07869 whole entry): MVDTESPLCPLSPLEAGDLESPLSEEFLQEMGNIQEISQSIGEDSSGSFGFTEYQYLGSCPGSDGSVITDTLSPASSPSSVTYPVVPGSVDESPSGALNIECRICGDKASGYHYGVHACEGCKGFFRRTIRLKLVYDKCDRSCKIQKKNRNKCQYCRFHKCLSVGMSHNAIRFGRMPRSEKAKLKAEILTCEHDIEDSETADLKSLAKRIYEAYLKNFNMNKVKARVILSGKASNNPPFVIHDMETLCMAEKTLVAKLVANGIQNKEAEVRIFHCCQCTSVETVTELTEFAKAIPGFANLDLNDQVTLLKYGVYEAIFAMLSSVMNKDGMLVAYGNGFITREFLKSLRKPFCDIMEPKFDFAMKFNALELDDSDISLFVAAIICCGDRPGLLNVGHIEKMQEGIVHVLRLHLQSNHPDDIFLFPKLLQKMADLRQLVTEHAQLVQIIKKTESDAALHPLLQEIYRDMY

[2] = target: T1, Peroxisome proliferator-activated receptor alpha; assay: Agonist activity at PPARalpha receptor expressed in HEK293 cells by GAL4 transactivation assay; assay type: functional, cell-based

- IC50 [1]: 2870 nM
- EC50 [2]: 321 nM
Compound: Cc1oc(-c2ccccc2)nc1CCOc1ccc(C[C@H](Nc2ccccc2C(=O)c2ccccc2)C(=O)O)cc1 [FARGLITAZAR]
